Data taken from ChEMBL document CHEMBL5257037, “Side Chain Cyclized Aromatic Amino Acids: Great Tools as Local Constraints in Peptide and Peptidomimetic Design” (J Med Chem, 2016).

Assay: Inhibition of farnesyltransferase (unknown origin)
Parameters: species or system Homo sapiens

IC50: 120 nM
Structure (SMILES): CSCC[C@H](NC(=O)[C@@H]1CCCN1C(=O)[C@@H](NC(=O)[C@@H](N)CS)C(C)C)C(=O)O
